Apparent affinities of Ab-14 variants for a coronavirus HR2 peptide

Data: MIT Lincoln Laboratory AlphaSeq set, Li et al. 2023, doi:10.1038/s41467-023-39022-2, as distributed in FLAb.

Binding partner: SARS-CoV-2 spike HR2 peptide, sequence PDVDLGDISGINAS.

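The parent was found by panning a naive human phage display library on the peptide. This is the validation round: designs drawn from the data on random variants, tested in the same kind of assay. Several design methods are mixed in this list. AlphaSeq pools MATa yeast showing the antibodies with MATalpha yeast showing the peptide. The frequency of each diploid, read from paired DNA barcodes, reflects how well the two displayed proteins bind. Each replicate has its own calibration line, from reference interactions of the BCL2 family. Each pool was mated in six replicate cultures.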

Each scFv is VH, a (GGGGS)3 linker, VL, as in the parent Ab-14, and differs from it in the CDRs of the light chain only.
VH: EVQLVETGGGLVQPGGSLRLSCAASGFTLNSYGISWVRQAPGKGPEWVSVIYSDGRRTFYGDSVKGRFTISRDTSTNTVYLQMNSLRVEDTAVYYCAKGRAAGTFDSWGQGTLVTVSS
VL: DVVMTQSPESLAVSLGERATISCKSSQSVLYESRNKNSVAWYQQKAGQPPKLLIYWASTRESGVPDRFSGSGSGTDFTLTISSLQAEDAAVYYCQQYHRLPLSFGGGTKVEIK

Changes read parent residue, position, new residue, counted from the first residue of the VL shown. This list holds designs with at most six substitutions. The Kd shown is the geometric mean over detected replicates; a lower Kd is a better binder. An entry "nd" has no value in the source: the pair was not observed among the diploids in any replicate. This suggests poor binding but is not conclusive. Background: pairings of all light chain designs with three empty control strains gave a value in 4% of cases (median 430 nM, 5th percentile 38 nM). Values in that range, when seen in few replicates, are hard to tell from nonspecific mating. Of ten entries with the parent sequence, four were seen in most replicates (averages 2.2 nM to 240 nM), three in one and three in none, so single entries are noisy. The authors averaged sequences with at least three values out of six and counted those with two or fewer as poor binders. The range of this assay differs from that of the first round, and the authors advise against merging the two.

S25I W56N T59Q E61L: 980 pM (6 of 6 replicates).
S25L S26P W56E A57G: 930 pM (6 of 6 replicates).
S25L V29W N35Q W56N T59Q: 1.4 nM (6 of 6 replicates).
L30M V39C Q96C R99D: nd (0 of 6 replicates).
S25L V29H W56N Q96A: 2.5 nM (6 of 6 replicates).
N35Q K36S S58D: 230 nM (4 of 6 replicates).
S25L S26M V29Q W56N: 840 pM (6 of 6 replicates).
S25L Q27F V29E W56E T59C S62E: 1.0 nM (6 of 6 replicates).
S25F S28K S33N N35T W56N: 69 nM (1 of 6 replicates).
S25L L30W Y31M W56E: 2.5 nM (6 of 6 replicates).
L30Q N35D S38N H98A: 140 nM (5 of 6 replicates).
S25L S28Q V29A W56Q S62V: 470 pM (6 of 6 replicates).
S25I V29Q R34E W56H S62L S103T: 2.1 nM (6 of 6 replicates).
S26E Y31V: 130 nM (3 of 6 replicates).
S25L S26Y V29H W56N T59Q: 370 pM (6 of 6 replicates).
E32C K36G S38H W56A: 12 nM (6 of 6 replicates).
S25L S26Q S33D W56N T59Q: 640 pM (6 of 6 replicates).
Q27W R34F W56H S62D: 160 nM (2 of 6 replicates).
S26G S28G Y31D N35A E61N: 940 nM (4 of 6 replicates).
S25L S26R Q27M V29T: 2.9 nM (6 of 6 replicates).
K24S S25L S26M W56H T59L S62D: 2.5 nM (6 of 6 replicates).
Q27G W56N E61C: 2.0 nM (6 of 6 replicates).
Q27W Y31G W56D: 550 pM (6 of 6 replicates).
S25L Q27T S38N W56D: 93 pM (6 of 6 replicates).
S25L S26V V29E W56N: 2.1 nM (6 of 6 replicates).
S38N T59E: 25 nM (6 of 6 replicates).
S25Q S28E V29K K36S W56D: 560 pM (6 of 6 replicates).
W56Y Q96V S103E: nd (0 of 6 replicates).
S25K S28P W56K E61C H98G L102V: nd (0 of 6 replicates).
S25L S26Q L30H W56N E61L: 1.8 nM (6 of 6 replicates).
V29W N35W W56G T59Q: 3.9 nM (6 of 6 replicates).

The first 2 variants above that were never detected:

changes	Kd (apparent)	seen in
L30M V39C Q96C R99D	nd	0/6
W56Y Q96V S103E	nd	0/6